In BindingDB's records for doi:10.1021/jm00346a020 (1982):

Assays:
[1] = molecular target: T1, Dihydrofolate reductase (Gallus gallus, UniProt P00378); test: Inhibitory activity against chicken Dihydrofolate reductase at pH 7.2.
T1 sequence (P00378 whole entry): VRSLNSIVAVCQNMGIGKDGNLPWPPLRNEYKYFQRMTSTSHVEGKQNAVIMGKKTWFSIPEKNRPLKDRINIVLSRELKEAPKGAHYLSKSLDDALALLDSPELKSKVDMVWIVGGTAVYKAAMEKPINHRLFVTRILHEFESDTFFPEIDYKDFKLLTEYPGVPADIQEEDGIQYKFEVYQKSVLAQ

[2] = molecular target: T1, Dihydrofolate reductase; test: Inhibitory activity against chicken dihydrofolate reductase at pH 7.2.

| Structure (SMILES) | Ki [1] [µM] | Ki [2] [µM] |
| --- | --- | --- |
| COCCOc1ccc(Cc2cnc(N)nc2N)cc1OCCOC | 123 |  |
| Nc1ccc(Cc2cnc(N)nc2N)cc1 |  | 186 |
| COCCOc1ccc(Cc2cnc(N)nc2N)cc1 | 55 |  |
| Nc1ncc(Cc2cccc(C(F)(F)F)c2)c(N)n1 |  | 12 |
| CCCCCCOc1ccc(Cc2cnc(N)nc2N)cc1 | 19.5 |  |
| CCCCOc1ccc(Cc2cnc(N)nc2N)cc1 |  | 21.4 |
| COCc1cccc(Cc2cnc(N)nc2N)c1 |  | 42.7 |
| Nc1ncc(Cc2ccc(Cl)cc2)c(N)n1 |  | 14.8 |
| Nc1ncc(Cc2cc(CO)cc(CO)c2)c(N)n1 |  | 589 |

The next lines start with the values.

| Ki [1] [µM] | Ki [2] [µM] | Structure (SMILES) |
| --- | --- | --- |
|  | 49 | Nc1ncc(Cc2cccc(CO)c2)c(N)n1 |
|  | 257 | Nc1ncc(Cc2ccc(O)c(O)c2)c(N)n1 |
|  | 27.5 | Cc1ccc(Cc2cnc(N)nc2N)cc1 |
|  | 45.7 | CC(=O)Nc1ccc(Cc2cnc(N)nc2N)cc1[N+](=O)[O-] |
|  | 9.33 | Nc1ncc(Cc2cccc(Br)c2)c(N)n1 |
|  | 46.8 | CS(=O)(=O)Oc1cccc(Cc2cnc(N)nc2N)c1 |
|  | 16.2 | Nc1ncc(Cc2ccc(Br)cc2)c(N)n1 |
|  | 135 | Nc1ncc(Cc2cccc(O)c2)c(N)n1 [3-(2,4-Diamino-pyrimidin-5-ylmethyl)-phenol] |
| 53.7 |  | NC(=O)COc1cccc(Cc2cnc(N)nc2N)c1 |
